# How the values were obtained:
# [1] = molecular target: Kappa-type opioid receptor (Homo sapiens, UniProt P41145); experiment: Radioligand Dose-Displacement Binding Assay; conditions: pH 7.4
# Mu-type opioid receptor = Mu-type opioid receptor (Homo sapiens, UniProt P35372); experiment: Radioligand Dose-Displacement Binding Assay; conditions: pH 7.4
Compound,Ki [1] [nM],Ki (Mu-type opioid receptor) [nM]
COc1ccc2c3c1O[C@H]1[C@@]4(OC)CC[C@@]5(C[C@@H]4COCc4ccc(Cl)c(Cl)c4)[C@@H](C2)[N+](C)(CC2CC2)CC[C@]315 (stereo not given in full),5.02,–
CO[C@]12CC[C@@]3(C[C@@H]1COCc1ccoc1)[C@H]1Cc4ccc(O)c5c4[C@@]3(CC[N+]1(C)CC1CC1)[C@H]2O5 (stereo not given in full),0.29,–
CO[C@]12CC[C@@]3(C[C@@H]1COCc1ccc(Cl)cc1)[C@H]1Cc4ccc(O)c5c4[C@@]3(CC[N+]1(C)CC1CC1)[C@H]2O5 (stereo not given in full),0.59,–
COc1ccc2c3c1O[C@H]1[C@@]4(OC)CC[C@@]5(C[C@@H]4COCc4cc6ccccc6o4)[C@@H](C2)[N+](C)(CC2CC2)CC[C@]315 (stereo not given in full),–,275
CO[C@]12CC[C@@]3(C[C@@H]1COCc1ccccc1Cl)[C@H]1Cc4ccc(O)c5c4[C@@]3(CC[N+]1(C)CC1CC1)[C@H]2O5 (stereo not given in full),0.19,–

# From BindingDB's records for US9096606
